In PubChem BioAssay AID463190 (Sanford-Burnham Center for Chemical Genomics, 2010) one finds inhibition data, which are given here for 59 compounds.

SMILES strings stand for the structures. Only a part is listed here, and it is no random draw. Calls of active or inactive are those of the source.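 The calls were made as follows: active = inhibition of at least 40%; inactive = the rest.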

The assay can be described thus: growth inhibition of tim10-1 ts yeast – luminescence, uHTS, primary screen (AID 463190).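 Also: mutant grown at 25 °C; 0% = DMSO wells with yeast and 100% = wells holding no yeast.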 Conditions: S. cerevisiae tim10-1 ts strain growth, BacTiter-Glo, 24 h; at 20 µM; hits give high values.
As to `CC(C)c1ccc(OP(=O)(Nc2ccccn2)Oc2ccccc2F)cc1` (centres undefined), the inhibition (usually the change of the read-out against control, counted positive when it falls) is inactive: 21.7%.

Consider `ClCCSc1nnc(-c2cccnc2)o1`, for which the inhibition is inactive: 18.3%.

As to `Cc1ccc2nc3c(c(C)c2c1)CC(C(Cl)Cl)S3` (centres undefined), the inhibition was active: 42.5%.

`Cc1ccc(OP(=O)(Nc2ccc([N+](=O)[O-])cn2)Oc2ccc(C)cc2)cc1`: the inhibition was inactive: 18.9%.

As for `COc1cc(C(=O)NCC2(N3CCOCC3)CCCCC2)ccc1OCC(C)C`, the inhibition is inactive: 31.6%.

Regarding `O=[As](O)(c1ccc(O)cc1)c1ccccc1O`, the inhibition is inactive: -6.31%.

Regarding `C[As](=O)(O)c1cccc(C(=O)O)c1`, the inhibition was inactive: 7.91%.

As to `COc1ccc(N/C(=N/P(=O)(N2CCOCC2)N2CCOCC2)N2CCOCC2)cc1`, the inhibition is inactive: 3.58%.

As for `COc1cc(I)ccc1[As](=O)(O)O`, the inhibition is inactive: -16.6%.

For `COc1ccc2nc(NP(=O)(c3ccccc3)c3ccccc3)sc2c1`, the inhibition was inactive: 23.3%.

As to `Cc1cc(=O)[nH]c(N[N+](=O)[O-])n1`, the inhibition was inactive: 7.53%.

On to `O=C(OC1CN2CCC1CC2)C12CC3CC(CC(C3)C1)C2` (centres undefined), for which the inhibition is inactive: 10.5%.

For `Cc1c2c(nc3ccccc13)SC(C(Cl)Cl)C2` (centres undefined), the inhibition was inactive: 19.5%.

Consider `CCOP(=O)(Nc1cccc2ccccc12)OCC`, for which the inhibition was inactive: 11.2%.

With `COc1cc(C2NCCC3(OCCO3)C2(C)C)cc(OC)c1OC` (centres undefined), the inhibition is inactive: 21.8%.

Turning to `CCCOP(=S)(Nc1nc(N)cc(=O)[nH]1)OCCC`, the inhibition was inactive: 16%.

For `Cc1ccc(NCCc2c([N+](=O)[O-])cc([N+](=O)[O-])cc2[N+](=O)[O-])cc1`, the inhibition is active: 63.5%.

For the compound `Cc1cccc(OCC(=O)OC2CN3CCC2CC3)c1` (centres undefined), the inhibition is inactive: -8.33%.

In the case of `O=[As](O)(c1cccc(O)c1)c1cccc(O)c1`, the inhibition is inactive: -1.32%.

With `CS(=O)(=O)c1ccc(Cl)c(NC(=O)COC(=O)C(O)(c2ccccc2)c2ccccc2)c1`, the inhibition is inactive: 18.3%.

In the case of `O=[As](O)(O)c1cccnc1`, the inhibition is inactive: -12.8%.

Regarding `COc1cc(C(=O)NCC2(N3CCOCC3)CCCCC2)cc(Cl)c1OC(C)C`, the inhibition is inactive: 23.8%.

For `O=C(OC1CN2CCC1CC2)c1ccc(Cl)cc1` (centres undefined), the inhibition was inactive: -26.7%.

As to `CN(C(=O)Cc1ccc(Cl)c(Cl)c1)[C@H]1CC[C@@]2(CCCO2)C[C@@H]1N1CCCC1`, the inhibition was inactive: 14.1%.

As to `O=[N+]([O-])c1ccc2c(c1)nnn2O`, the inhibition is inactive: 2.24%.

In the case of `CN(C)C(=O)c1cc([N+](=O)[O-])cc2c1-c1c(cc([N+](=O)[O-])cc1[N+](=O)[O-])C2=O`, the inhibition was active: 81%.

In the case of `CCOP1(=S)c2c(C)nn(CCC#N)c2N=C(c2ccc(F)cc2)N1C` (centres undefined), the inhibition is inactive: 8.51%.

With `CN(C(=O)Cc1ccccc1)[C@@H]1CC[C@]2(CCCO2)C[C@H]1N1CCCC1`, the inhibition is inactive: 7.47%.

As to `N#CCCN(C(=O)COC(=O)C(O)(c1ccccc1)c1ccccc1)c1ccc(F)cc1`, the inhibition is inactive: 6.99%.

Turning to `NC(=O)Nc1ccc([As](=O)(O)O)cc1`, the inhibition is inactive: -4.42%.

With `Nc1ccccc1[As](=O)(O)c1ccccc1`, the inhibition is inactive: -11%.

In the case of `O=C(O)COc1ccc([As](=O)(O)O)cc1[N+](=O)[O-]`, the inhibition is inactive: 17.3%.

Consider `CS(=O)(=O)c1cc([N+](=O)[O-])c2no[n+]([O-])c2c1`, for which the inhibition was inactive: 1.67%.

With `O=P(Nc1nccs1)(Oc1ccccc1)Oc1ccccc1`, the inhibition was inactive: 16.8%.

For `O=P(Nc1nccs1)(c1ccccc1)c1nc2ccccc2s1` (centres undefined), the inhibition is inactive: -3.34%.

With `CCOP1(=S)c2c(C)nn(CCC#N)c2N=C(c2ccccc2F)N1C` (centres undefined), the inhibition is inactive: 26.6%.

Take `O=[As](O)(c1cccs1)c1cccs1`: the inhibition is inactive: 30.4%.

`Cc1ccc(OCC(=O)OC2CN3CCC2CC3)cc1` (centres undefined): the inhibition is inactive: 5.39%.

In the case of `O=P1(Nc2ccc(Br)cn2)COc2ccccc2OC1`, the inhibition was inactive: 3.67%.

With `NS(=O)(=O)c1cccc(NC(=O)COC(=O)C(O)(c2ccccc2)c2ccccc2)c1`, the inhibition is inactive: -4.76%.

As for `Nc1cccc([As](=O)(O)c2ccccc2)c1`, the inhibition was inactive: -12.6%.

For `O=P1(Nc2ncccn2)COc2ccccc2OC1`, the inhibition was inactive: 13%.

With `O=C(/C=C/c1ccccc1)OC1CN2CCC1CC2` (centres undefined), the inhibition is inactive: 5.07%.

As for `CN(C)C1(CNC(=O)c2ccc(S(C)(=O)=O)cc2)CCCCC1`, the inhibition was inactive: 9.93%.

On to `CC1CCC(C(C)C)C(OP(=O)(Nc2ccccn2)c2ccccc2)C1` (centres undefined), for which the inhibition is inactive: 24.7%.

As to `Cc1ccc(C(=O)OC2CN3CCC2CC3)cc1` (centres undefined), the inhibition was inactive: -3.98%.

With `Cc1nn(-c2ccccc2)c2c1P(=O)(N1CCOCC1)N(C)C(c1ccccc1)=N2` (centres undefined), the inhibition was inactive: -0.436%.

As for `CC1(CBr)Cn2c(nc3ccccc3c2=O)S1` (centres undefined), the inhibition was inactive: -0.379%.

Turning to `O=[As](O)(c1ccccc1Br)c1ccccc1Br`, the inhibition is inactive: 6.24%.

`CC(C)/C=N\N=C(\N)N[N+](=O)[O-]`: the inhibition is inactive: -2.59%.

Consider `CN(C(=O)Cc1ccc(Cl)c(Cl)c1)[C@@H]1CCCC[C@H]1N1CCCC1`, for which the inhibition was inactive: -6.44%.

On to `COc1ccccc1CNC(=O)COC(=O)C(O)(c1ccccc1)c1ccccc1`, for which the inhibition was inactive: 11.3%.

On to `CC(C)(C)C(=O)NC(Sc1ncccn1)C(Cl)(Cl)Cl` (centres undefined), for which the inhibition is inactive: 18.3%.

As for `Clc1n[nH]nc1-c1nn[nH][15n]1`, the inhibition is inactive: 12.4%.

In the case of `CCOP(=O)(Nc1ccc(C)cn1)OCC`, the inhibition was inactive: 1.38%.

As for `CN(CCCl)Cc1cc(Cl)c(NC2=NCCN2)c(Cl)c1`, the inhibition was inactive: -3.2%.

`CCOP(=O)(NC(=NC(C)c1ccccc1)NC(C)c1ccccc1)OCC` (centres undefined): the inhibition was inactive: 10.7%.

Regarding `O=P1(Nc2ccccn2)COc2ccccc2OC1`, the inhibition is inactive: -2.97%.

In the case of `CCC1=CC2Cc3nc4ccc(Cl)cc4c(N)c3C(C1)C2` (centres undefined), the inhibition is inactive: -24.6%.
